Literature values, collected in paper PMC10165945 (Journal of medicinal chemistry, 2013).

Test system: neprilysin (NEP), endothelin-converting enzyme-1 (ECE1), ACE, and MMP-2 and -7
Details: previous work; cited from earlier work

N=C(N)NCCC[C@H](NC(=O)[C@@H](CC(=O)NO)Cc1ccc2ccccc2c1)C(=O)N[C@@H](Cc1c[nH]c2ccccc12)C(=O)N[C@@H](CCC(=O)O)C(N)=O [inhibitor 1a]
selectivity for IDE vis-à-vis other zinc-metalloproteases: > 10^4 fold and ~ 10^4 fold

Values joined by “and” are separate entries in the source; they are usually repeats but may differ in a detail not shown here. Equal values may be shown once.
